Experimental data as given in patent US6239146A, “Neurotrophic difluoroamide agents” (Bristol-Myers Squibb Company, priority 2000, dated 2001).

Sequences of proteins named here, by UniProt entry; tags and fusion partners are left off.
UniProt P62942, whole entry, species assumed: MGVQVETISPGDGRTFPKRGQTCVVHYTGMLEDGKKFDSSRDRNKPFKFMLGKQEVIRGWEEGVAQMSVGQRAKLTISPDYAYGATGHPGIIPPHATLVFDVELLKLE

Biological target: FKBP12 (Homo sapiens, UniProt P62942)
Test: FKBP12 Rotamase Inhibition Assay
Type: biochemical
Details: read-out: Percent Inhibition at 10 μM (rotamase)

COc1cc(C(F)(F)C(=O)N2CCC[C@H]2C(=O)OCCCc2cccnc2)cc(OC)c1OC [Example 2]
inhibition at 10 µM: 97%
